# Experimental data published in patent publication US5821363A, “Antineoplastic use and pharmaceutical compositions containing them” (priority 1996, dated 1998).
# Test system: KB-V1
# Assay: killing of multidrug resistant KB-V1 cells
# Assay type: cell-based
structure (smiles),measurement,setting,value
"COCO[C@H]1C[C@H]2OC[C@@]2(OC(C)=O)[C@H]2[C@H](OC(=O)c3ccccc3)[C@]3(O)CC(OC(=O)[C@H](O)[C@@H](NC(=O)NC(C)(C)C)c4ccccc4)=C(C)[C@H]([C@@H](OC(C)=O)C(=O)[C@]12C)C3(C)C [Compound 67, 7-(O-methoxymethyl)-13-(N-t-butylaminocarbonyl-β-phenylisoserinyl)-Δ^12,13-iso-baccatin III]",Ratio: KBV-1/KB-3-1,ratio of IC50 KB-V1 to IC50 KB-3-1,570000
same,IC50,"read-out: KB-V1 (IC50; nM), KB-V1 multidrug resistant cells, Table III",140 nM
